Each structure is given as a SMILES string.

We go through one compound from paper PMC7010297, “How the initiating ribosome copes with ppGpp to translate mRNAs” (PLoS Biology, 2020).

The test concerns the target T1, IF2-bound 30S IC (Escherichia coli, UniProt P0A705).
T1 construct: 6xHis (N); made in house
Put plainly: 30S IC formation by MST, guanosine nucleotide titration. The format is binding. To be noted: 30S IC programmed with mMF1; read-out: KD of GTP for the 30S IC. The text has this:
To monitor the interaction of initiator tRNA and 30S ribosomal subunits, we used Microscale Thermophoresis (MST) with a fluorescently labelled initiator tRNA (Bpy-tRNAi) (Fig 1B). MST allows to measure fluorescence in a constrained space. Changes on the readout derive from molecular drifts resulting from small thermal equilibrium perturbations. Upon equilibrium perturbations, the patterns of Bpy-tRNAi migration away from the observation space are related to bound and unbound states (Fig 1B). […] On the contrary, a decrease in thermophoresis indicated the dissociation of Bpy-tRNAi. The relation between fluorescence measured at both equilibriums (Ff to Fi, after and prior to the perturbation, respectively) as a function of ligand concentration allowed to determine dissociation constants of the interaction (Fig 1C).
Continuous lines indicate nonlinear regression fittings with a quadratic equation. Three measurements were performed; mean and standard deviation are plotted (S1 Data). […] (D) Formation of 70S IC as measured by Bpy-tRNAi accommodation in the P site of the ribosome; 0.1 μM 30S ICs were formed with Bpy-tRNAi and rapidly mixed with 0.3 μM 50S subunits on a stopped-flow apparatus as described in [14]. […]
MST was calculated from the respective fluorescence time dependencies (S3 Fig). […]

By Kd is commonly meant the equilibrium constant for the complex coming apart. With `Nc1nc2c(ncn2[C@@H]2O[C@H](COP(=O)(O)OP(=O)(O)OP(=O)(O)O)[C@@H](O)[C@H]2O)c(=O)[nH]1` [GTP, guanosine triphosphate], the Kd worked out at 650 ± 50 nM.
